Usually IC50 stands for the point on the concentration scale where inhibition reaches its midpoint.

Protein sequences, listed by entry. Tags and fused reporters are not part of them.
UniProt P25774, whole entry: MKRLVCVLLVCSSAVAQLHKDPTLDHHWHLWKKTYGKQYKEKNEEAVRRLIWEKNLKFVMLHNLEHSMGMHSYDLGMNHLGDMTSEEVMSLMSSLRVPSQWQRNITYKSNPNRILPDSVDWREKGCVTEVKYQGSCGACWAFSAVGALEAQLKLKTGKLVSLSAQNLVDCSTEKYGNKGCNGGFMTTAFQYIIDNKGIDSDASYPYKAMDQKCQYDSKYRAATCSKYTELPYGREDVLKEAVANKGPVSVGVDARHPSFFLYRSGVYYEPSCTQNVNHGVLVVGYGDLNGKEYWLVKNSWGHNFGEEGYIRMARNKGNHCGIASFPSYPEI

The values below come from ChEMBL document CHEMBL3886685, “Nitrogen-containing bicyclic aromatic heterocyclic compound” (2016).

Structures are written as SMILES.

The assay concerns the target Cathepsin S (Homo sapiens, UniProt P25774). Put plainly: Inhibition Assay: 5 μL of a human cathepsin S enzyme (R&D1183-CY-010) was added to a 96-well plate so as to be 20 ng/well. Next, 10-fold dilution of the test compound (a 10 mM DMSO solution) was serially performed with a buffer solution for assay (a solution of 50 mM sodium methoxide, 250 mM sodium chloride and 5 mM dithiothreitol (DTT), adjusted to pH=4.5 with 1 N hydrochloric acid) six times such that the final concentration becomes 0.1 nM to 10 μM then, 20 μL of each of the solutions was added to the wells (the final DMSO concentration was 0.1%), and 25 μL of synthetic substrate VVR-AMC (3211-V manufactured by PEPTIDE […], INC.) was added thereto such that the final concentration becomes 40 μM, thereby starting a enzyme reaction. A fluorescence intensity (an excitation wavelength: 380 nm and a fluorescent wavelength: 460 nm) was measured at 37° C. for 10 minutes immediately after the start of the reaction using a fluorescence spectrophotometer (SPECTRA MAX GEMINI, manu.

Consider `CCOc1ccc(-c2nc(C#N)nc3c2ncn3C)cc1C(F)(F)F`, for which the IC50 is 3.8 nM.
